Measurements taken from US12115157B2, “3-phenoxyazetidin-1-yl-heteroaryl pyrrolidine derivatives and the use thereof as medicament” (Boehringer Ingelheim International GmbH, priority 2021, dated 2024).

The chains behind the UniProt entries cited, without tags or fusion partners.
UniProt Q9Y2T5, whole entry: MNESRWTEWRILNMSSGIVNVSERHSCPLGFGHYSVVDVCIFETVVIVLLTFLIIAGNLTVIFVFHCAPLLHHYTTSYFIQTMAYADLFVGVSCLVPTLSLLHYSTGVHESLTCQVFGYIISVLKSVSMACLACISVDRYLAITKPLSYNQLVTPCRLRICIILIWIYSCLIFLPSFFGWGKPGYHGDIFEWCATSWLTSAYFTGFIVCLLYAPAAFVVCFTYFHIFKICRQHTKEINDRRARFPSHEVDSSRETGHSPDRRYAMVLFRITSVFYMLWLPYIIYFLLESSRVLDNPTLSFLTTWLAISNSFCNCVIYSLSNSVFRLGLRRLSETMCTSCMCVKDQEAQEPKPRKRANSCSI
UniProt Q12809, whole entry: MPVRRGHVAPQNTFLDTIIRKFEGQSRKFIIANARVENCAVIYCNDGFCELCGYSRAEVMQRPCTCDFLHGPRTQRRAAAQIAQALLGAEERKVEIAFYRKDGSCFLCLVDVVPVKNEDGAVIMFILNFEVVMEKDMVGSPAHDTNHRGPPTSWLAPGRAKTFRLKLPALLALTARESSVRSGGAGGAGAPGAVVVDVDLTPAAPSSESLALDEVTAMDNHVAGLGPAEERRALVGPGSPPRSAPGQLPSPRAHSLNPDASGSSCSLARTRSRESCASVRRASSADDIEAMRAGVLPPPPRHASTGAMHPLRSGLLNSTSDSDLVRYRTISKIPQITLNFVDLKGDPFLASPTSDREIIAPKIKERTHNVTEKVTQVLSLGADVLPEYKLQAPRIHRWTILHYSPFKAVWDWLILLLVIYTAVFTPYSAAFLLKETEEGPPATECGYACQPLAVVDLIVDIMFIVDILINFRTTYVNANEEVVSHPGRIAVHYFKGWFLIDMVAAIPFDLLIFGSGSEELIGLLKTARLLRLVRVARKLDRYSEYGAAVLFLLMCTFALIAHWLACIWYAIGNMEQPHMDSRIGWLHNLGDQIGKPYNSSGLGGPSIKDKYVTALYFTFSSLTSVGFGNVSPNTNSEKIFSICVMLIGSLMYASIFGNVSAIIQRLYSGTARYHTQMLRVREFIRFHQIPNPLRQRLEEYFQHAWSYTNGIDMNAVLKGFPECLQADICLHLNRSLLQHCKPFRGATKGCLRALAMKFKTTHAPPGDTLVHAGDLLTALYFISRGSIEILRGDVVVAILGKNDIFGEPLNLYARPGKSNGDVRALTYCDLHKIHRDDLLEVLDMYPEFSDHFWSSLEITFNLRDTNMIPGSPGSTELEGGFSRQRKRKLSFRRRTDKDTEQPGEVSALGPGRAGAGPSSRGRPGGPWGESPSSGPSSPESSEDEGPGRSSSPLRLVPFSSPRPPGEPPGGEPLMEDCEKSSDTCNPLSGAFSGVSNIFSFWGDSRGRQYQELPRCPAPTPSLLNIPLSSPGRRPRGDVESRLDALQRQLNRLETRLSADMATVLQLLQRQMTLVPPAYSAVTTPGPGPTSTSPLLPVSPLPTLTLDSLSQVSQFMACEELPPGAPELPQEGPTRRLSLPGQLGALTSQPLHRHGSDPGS

Key:
[1] = target: human GPR52 (Homo sapiens (Human), UniProt Q9Y2T5); assay: HTRF assay for direct cAMP measurement; details: read-out: GPR52 EC50, CHO-K1 cells stably expressing recombinant human GPR52, mean EC50
Method: HTRF cAMP assays were performed using commercially available assay kits according to the manufacturer's instructions (cAMP Dynamic 2 Assay Kit; #62AM4PEJ, Cisbio Bioassays, Bedford, MA). An aliquot of CHO-K1 cells stably expressing recombinant human GPR52 was thawed and resuspended in cell buffer (1×PBS (w/o Ca^2+/Mg^2+)) at a density of 4×10^5 cells per mL. Test compounds were solubilized in DMSO to 10 mM stock solutions and serially diluted in DMSO using 6-fold dilutions to generate 8-point dose response curves. These serially diluted samples were then diluted 1:50 in compound dilution buffer (1×PBS (w/o Ca^2+/Mg^2+) containing 0.5 mM IBMX, 0.1% BSA) to achieve a 4× stock. […] Plates were then incubated at room temperature for one hour prior to reading. Time-resolved fluorescence measurements were collected on an EnVision® HTRF plate reader (PerkinElmer, Waltham, MA). Counts from the plate reader were fit to the cAMP standard curve included on each plate to determine the amount of cAMP in each test well. The % control was calculated based on the […]. Dose-response curves were generated from the cAMP data and analyzed using a nonlinear least squares curve-fitting program to obtain EC50 values.

[2] = target: hERG channel (Homo sapiens (Human), UniProt Q12809); assay: hERG channel assay (whole-cell patch clamp); details: read-out: hERG IC50, HEK293 cells stably transfected with hERG cDNA
Source text: hERG Channel inhibition of compounds of the present invention was investigated as follows:
HEK (human embryonic kidney) 293 cells were stably transfected with hERG cDNA. Cells determined for use in patch clamp experiments were cultivated without antibiotic.
Cells were superfused with a bath solution containing (mM): NaCl (137), KCl (4.0), MgCl2 (1.0), CaCl2(1.8), Glucose (10), HEPES (10), pH 7.4 with NaOH. Patch pipettes were made from borosilicate glass tubing using a pipette and filled with pipette solution containing (mM): K-aspartate (130), MgCl2(5.0), EGTA (5.0), K2ATP (4.0), HEPES (10.0), pH 7.2 with KOH. Resistance of the microelectrodes was typically in the range between 2 MΩ and 5 MΩ.
Membrane currents were recorded using an EPC-10 patch clamp amplifier (HEKA Electronics, Lambrecht, FRG) and PatchMaster software (HEKA). hERG-mediated membrane currents were recorded at typically 28° C., using the whole-cell configuration of the patch-clamp technique. […] During each inter-pulse interval 4 pulses scaled down by a factor of 0.2 were recorded for a P/n leak subtraction procedure. […] The remaining uncompensated Rs was recorded as well as actual temperature and holding current. […]
Peak current amplitudes were measured 3 ms after the ramp to +40 mV. […] Residual currents (I/I0) were calculated for each cell as the fraction of actual average peak current and average baseline peak current. […]

[3] = test system: human plasma proteins; assay: Human plasma protein binding assay (equilibrium dialysis); details: 1 μM, 2 hours, 37° C.
Method: Equilibrium dialysis (ED) technique was used to determine the approximate in vitro fractional binding of test compounds to plasma proteins. Dianorm Teflon dialysis cells (micro 0.2) were used. Each dialysis cell consists of a donor and an acceptor chamber, separated by an ultrathin semipermeable membrane with a 5 kDa molecular weight cut-off. Stock solutions for each test compound were prepared in DMSO at 1 mM and serially diluted to obtain a final test concentration of 1 μM. The subsequent dialysis solutions were prepared in plasma (supplemented with NaEDTA as anticoagulant), and aliquots of 200 μL test compound dialysis solution in plasma were dispensed into the donor (plasma) chambers. Aliquots of 200 μL dialysis buffer (100 mM potassium phosphate, pH 7.4) were dispensed into the buffer (acceptor) chamber. Incubation was carried out for 2 hours under rotation at 37° C. for establishing equilibrium.
At the end of the dialysis period, aliquots obtained from donor and acceptor chambers, respectively, were transferred into reaction tubes, spiked with Internal Standard solution and processed for HPLC-MS/MS analysis. Analyte concentrations were quantified in aliquots of samples by HPLC-MS/MS against external calibration curves.
Percent bound was calculated using the formula: % bound=(plasma concentration−buffer concentration/plasma concentration)×100

[4] = test system: human hepatocytes; assay: Metabolic stability in human hepatocytes; details: human hepatocyte suspension, 1 μM; predicted hepatic clearance as percentage of hepatic blood flow
Method: The metabolic degradation of a test compound was assayed in a human hepatocyte suspension. After recovery from cryopreservation, human hepatocytes were diluted in Dulbecco's modified eagle medium (supplemented with 3.5 μg glucagon/500 mL, 2.5 mg insulin/500 mL, 3.75 mg hydrocortisone/500 mL, 5% human serum) to obtain a final cell density of 1.0×10^6 cells/mL or 4.0×10^6 cells/mL, depending on the metabolic turnover rate of the test compound.
Following a 30 minutes preincubation in a cell culture incubator (37° C., 10% CO2), test compound solution was spiked into the hepatocyte suspension, resulting in a final test compound concentration of 1 μM and a final DMSO concentration of 0.05% (v/v).
The cell suspension was incubated at 37° C. […]
The percentage of remaining test compound was calculated using the peak area ratio (test compound/internal standard) of each incubation time point relative to the time point 0 peak area ratio. […]
In vitro intrinsic clearance (CLint) was calculated from in vitro T1/2 and scaled to whole liver using a hepatocellularity of 120×10^6 cells/g liver, a human liver per body weight of 25.7 g liver/kg as well as in vitro incubation parameters, applying the following equation: CL_INTRINSIC_IN VIVO[mL/min/kg]=(CL_INTRINSIC[μL/min/10^6 cells]×hepatocellularity[10^6 cells/g liver]×liver factor[g/kg body weight])/1000 […]

Question: Which EC50 [1] does the source give for `CC(=O)N1C[C@@H](F)[C@@H](NC(=O)c2nccnc2N2CC(Oc3ccc(F)c(F)c3)C2)C1` (relative stereo) here?
Answer: 0.092 µM

Question: What about the IC50 [2] of the same molecule?
Answer: > 10 µM

Question: What about the “Hu PPB” value [3] of the same molecule?
Answer: 72.3 % bound

Question: What about the “Human HepStab” value [4] of the same molecule?
Answer: <4.1 % QH
